The chains behind the UniProt entries cited, without tags or fusion partners.
UniProt P42336, whole entry: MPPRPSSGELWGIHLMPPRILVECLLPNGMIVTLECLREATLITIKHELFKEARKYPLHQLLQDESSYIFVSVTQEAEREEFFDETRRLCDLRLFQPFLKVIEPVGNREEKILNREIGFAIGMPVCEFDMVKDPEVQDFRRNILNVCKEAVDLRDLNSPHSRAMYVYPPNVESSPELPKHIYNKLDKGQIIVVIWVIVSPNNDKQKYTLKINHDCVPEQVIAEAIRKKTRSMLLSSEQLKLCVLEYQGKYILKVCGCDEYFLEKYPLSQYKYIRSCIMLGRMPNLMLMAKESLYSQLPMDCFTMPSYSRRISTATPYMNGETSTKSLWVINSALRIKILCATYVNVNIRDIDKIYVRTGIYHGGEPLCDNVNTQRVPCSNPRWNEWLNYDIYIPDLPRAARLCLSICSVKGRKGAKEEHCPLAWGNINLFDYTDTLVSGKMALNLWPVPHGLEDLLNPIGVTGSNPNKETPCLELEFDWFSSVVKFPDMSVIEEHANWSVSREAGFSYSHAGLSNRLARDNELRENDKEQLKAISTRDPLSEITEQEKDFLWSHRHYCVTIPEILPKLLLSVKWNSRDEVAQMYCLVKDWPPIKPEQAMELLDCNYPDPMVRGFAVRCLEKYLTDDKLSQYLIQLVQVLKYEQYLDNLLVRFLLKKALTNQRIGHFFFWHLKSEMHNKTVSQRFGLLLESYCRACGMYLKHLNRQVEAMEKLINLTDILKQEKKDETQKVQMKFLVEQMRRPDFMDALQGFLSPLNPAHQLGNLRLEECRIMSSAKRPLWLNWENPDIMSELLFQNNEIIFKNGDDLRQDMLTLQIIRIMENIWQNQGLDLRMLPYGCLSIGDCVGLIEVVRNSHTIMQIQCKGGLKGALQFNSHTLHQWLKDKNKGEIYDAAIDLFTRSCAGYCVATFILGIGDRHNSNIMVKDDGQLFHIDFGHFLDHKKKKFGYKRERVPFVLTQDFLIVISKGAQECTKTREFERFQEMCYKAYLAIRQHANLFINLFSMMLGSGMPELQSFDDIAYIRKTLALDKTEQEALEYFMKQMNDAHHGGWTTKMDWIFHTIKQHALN

In ChEMBL document CHEMBL1287774, “Discovery of new azaindole-based PI3Kα inhibitors: apoptotic and antiangiogenic effect on cancer cells” (Bioorg Med Chem Lett, 2010):

Biological target: Phosphatidylinositol 4,5-bisphosphate 3-kinase catalytic subunit alpha isoform (Homo sapiens, UniProt P42336)
Assay: Inhibition of PI3Kalpha

## COc1ccc(-c2c[nH]c3ncc(-c4cnc(N)c(NS(=O)(=O)N5CCOCC5)c4)cc23)cc1OC
  IC50: 16 nM
